The results in this text go back to ChEMBL document CHEMBL3991601, “The target landscape of clinical kinase drugs” (Science, 2017).

Protein sequences, listed by entry. Tags and fused reporters are not part of them. Lines headed by an entry give the natural chain unless they say otherwise; changes in a name come on top.
UniProt P50750, whole entry: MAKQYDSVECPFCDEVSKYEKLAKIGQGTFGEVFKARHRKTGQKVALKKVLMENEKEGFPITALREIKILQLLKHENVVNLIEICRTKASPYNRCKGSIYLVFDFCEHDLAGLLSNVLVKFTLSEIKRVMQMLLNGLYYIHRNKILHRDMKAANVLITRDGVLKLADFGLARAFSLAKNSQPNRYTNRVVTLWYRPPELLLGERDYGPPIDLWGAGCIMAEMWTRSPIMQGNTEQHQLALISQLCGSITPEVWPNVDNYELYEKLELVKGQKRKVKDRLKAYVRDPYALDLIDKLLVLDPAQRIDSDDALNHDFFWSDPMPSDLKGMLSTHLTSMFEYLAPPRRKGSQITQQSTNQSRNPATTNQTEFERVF
UniProt P05771, whole entry: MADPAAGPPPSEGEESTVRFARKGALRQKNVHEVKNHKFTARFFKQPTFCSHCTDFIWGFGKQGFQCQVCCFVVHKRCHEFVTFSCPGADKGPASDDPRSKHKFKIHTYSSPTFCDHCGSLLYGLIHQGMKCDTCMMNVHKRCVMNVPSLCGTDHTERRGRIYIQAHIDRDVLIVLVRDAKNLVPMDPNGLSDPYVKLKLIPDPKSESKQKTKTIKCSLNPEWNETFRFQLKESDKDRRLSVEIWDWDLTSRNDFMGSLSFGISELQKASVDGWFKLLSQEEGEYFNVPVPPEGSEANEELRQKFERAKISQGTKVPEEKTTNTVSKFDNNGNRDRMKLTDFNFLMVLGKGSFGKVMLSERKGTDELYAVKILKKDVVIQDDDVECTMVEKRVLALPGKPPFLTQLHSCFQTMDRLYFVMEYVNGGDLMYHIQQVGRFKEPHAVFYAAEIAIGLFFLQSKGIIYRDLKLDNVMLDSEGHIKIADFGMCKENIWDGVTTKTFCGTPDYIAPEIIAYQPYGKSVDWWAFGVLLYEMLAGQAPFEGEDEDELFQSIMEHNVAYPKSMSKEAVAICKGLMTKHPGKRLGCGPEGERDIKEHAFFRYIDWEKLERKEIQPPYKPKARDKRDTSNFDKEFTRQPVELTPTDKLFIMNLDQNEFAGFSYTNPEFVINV
UniProt P50613: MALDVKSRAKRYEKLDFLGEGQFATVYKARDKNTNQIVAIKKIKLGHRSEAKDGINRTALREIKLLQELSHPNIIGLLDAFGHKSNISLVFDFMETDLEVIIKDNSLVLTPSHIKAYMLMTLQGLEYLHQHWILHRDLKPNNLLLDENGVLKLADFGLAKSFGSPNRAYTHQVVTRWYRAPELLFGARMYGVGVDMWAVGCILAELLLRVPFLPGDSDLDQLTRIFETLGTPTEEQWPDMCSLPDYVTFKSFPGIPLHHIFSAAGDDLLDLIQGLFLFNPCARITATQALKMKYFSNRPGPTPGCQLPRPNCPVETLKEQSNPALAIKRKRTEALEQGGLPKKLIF
UniProt P36888, whole entry: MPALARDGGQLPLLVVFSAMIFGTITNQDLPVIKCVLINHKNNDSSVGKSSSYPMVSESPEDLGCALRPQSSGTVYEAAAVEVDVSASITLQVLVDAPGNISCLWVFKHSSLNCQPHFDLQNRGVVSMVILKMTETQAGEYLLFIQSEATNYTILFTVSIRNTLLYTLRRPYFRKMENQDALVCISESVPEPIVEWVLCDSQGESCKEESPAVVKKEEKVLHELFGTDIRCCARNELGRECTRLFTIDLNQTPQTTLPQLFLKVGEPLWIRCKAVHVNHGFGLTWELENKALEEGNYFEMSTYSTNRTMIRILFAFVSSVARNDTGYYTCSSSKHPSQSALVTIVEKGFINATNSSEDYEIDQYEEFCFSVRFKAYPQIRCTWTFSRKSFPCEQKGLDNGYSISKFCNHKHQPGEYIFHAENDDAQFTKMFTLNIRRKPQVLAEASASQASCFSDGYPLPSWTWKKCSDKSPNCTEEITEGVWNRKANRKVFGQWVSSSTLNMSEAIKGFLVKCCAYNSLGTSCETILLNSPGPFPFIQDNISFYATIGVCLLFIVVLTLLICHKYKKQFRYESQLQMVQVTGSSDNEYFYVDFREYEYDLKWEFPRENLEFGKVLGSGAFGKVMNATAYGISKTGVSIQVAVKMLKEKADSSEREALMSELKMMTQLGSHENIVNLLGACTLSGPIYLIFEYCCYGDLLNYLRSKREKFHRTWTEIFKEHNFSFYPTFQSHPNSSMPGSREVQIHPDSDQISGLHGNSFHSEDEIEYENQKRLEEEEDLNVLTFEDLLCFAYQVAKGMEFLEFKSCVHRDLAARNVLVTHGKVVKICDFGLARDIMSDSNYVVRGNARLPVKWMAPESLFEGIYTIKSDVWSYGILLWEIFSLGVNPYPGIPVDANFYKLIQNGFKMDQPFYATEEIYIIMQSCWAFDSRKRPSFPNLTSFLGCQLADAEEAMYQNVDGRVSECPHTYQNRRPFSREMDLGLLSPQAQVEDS
UniProt P07947, whole entry: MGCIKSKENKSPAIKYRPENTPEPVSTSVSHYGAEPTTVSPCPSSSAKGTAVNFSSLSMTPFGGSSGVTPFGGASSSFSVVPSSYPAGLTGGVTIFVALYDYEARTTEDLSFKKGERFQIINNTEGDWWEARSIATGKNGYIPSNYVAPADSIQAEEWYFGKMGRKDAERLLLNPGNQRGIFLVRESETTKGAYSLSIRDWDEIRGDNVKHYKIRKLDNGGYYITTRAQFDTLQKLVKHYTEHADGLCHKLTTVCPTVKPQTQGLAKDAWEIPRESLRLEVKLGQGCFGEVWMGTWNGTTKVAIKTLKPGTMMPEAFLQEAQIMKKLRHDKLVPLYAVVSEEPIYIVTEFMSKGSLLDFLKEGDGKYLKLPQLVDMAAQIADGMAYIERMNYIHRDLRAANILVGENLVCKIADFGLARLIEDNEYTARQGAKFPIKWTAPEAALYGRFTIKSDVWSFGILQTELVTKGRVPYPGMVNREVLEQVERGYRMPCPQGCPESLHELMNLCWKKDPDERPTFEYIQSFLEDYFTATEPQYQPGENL

Calls of active or inactive are those of the source. Unless noted, the rule behind the calls is not given here.

The target of assay [1] is Cyclin-dependent kinase 9 (Homo sapiens, UniProt P50750).
For assay [2], the target named is Protein kinase C beta type (Homo sapiens, UniProt P05771).
Assay [3] deals with Cyclin-dependent kinase 7 (Homo sapiens, UniProt P50613).
In assay [4] the target is Receptor-type tyrosine-protein kinase FLT3 (Homo sapiens, UniProt P36888).
Assay [5] has as its target Tyrosine-protein kinase Yes (Homo sapiens, UniProt P07947).

Regarding `CN1C/C=C/CCOc2cccc(c2)-c2ccnc(n2)Nc2cccc(c2)C1` [ZOTIRACICLIB], the dissociation constant Kd (commonly a measure of binding affinity in units of concentration) in assay [1] is active: 0.001 µM.

`CN1CCN(c2nc(C3=C(c4c[nH]c5ccccc45)C(=O)NC3=O)c3ccccc3n2)CC1` [SOTRASTAURIN]: the dissociation constant (Kd) in assay [2] is active: 0.024 µM.

`COc1ccc2c(OCc3nnc4ccc(-c5ccccc5)nn34)ccnc2c1` [AMG-208]: the Kd in assay [1] was inactive: > 30 µM.

Regarding `CC1(COc2ccc3c(c2)ncn3-c2ccc3cccc(N4CCC(N)CC4)c3n2)COC1` [CRENOLANIB], the Kd in assay [3] was inactive: > 30 µM.

For `C1=C/COCc2cc(ccc2OCCN2CCCC2)Nc2nccc(n2)-c2cccc(c2)COC/1` [PACRITINIB], the Kd in assay [4] was active: 0.228 µM.

As for `CCN1CCN(Cc2ccc(-c3cc4c(N[C@H](C)c5ccccc5)ncnc4[nH]3)cc2)CC1` [AEE-788], the Kd in assay [5] is active: 17.2 µM.

As for `Cn1cc(-c2cnn3c(N)c(Br)c([C@@H]4CCCNC4)nc23)cn1` [SCH-900776], in assay [1], the Kd was inactive: > 30 µM.

Consider `FC(F)(F)c1ccc(/C=C/c2nc(COc3ccc(CCCCn4ccnn4)cc3)co2)cc1` [MUBRITINIB], for which the Kd in assay [1] was inactive: > 30 µM.

Take `COCC(=O)NC/C=C/c1ccc2ncnc(Nc3ccc(Oc4ccc(C)nc4)c(C)c3)c2c1` [CP-724714]: the Kd in assay [1] was inactive: > 30 µM.
